# Cyclic peptide permeability, from CycPeptMPDB

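The data file gives no further conditions (lipid, pH, time, direction or concentration), and values from different papers need not be comparable. The list need not hold all peptides of the study. Entries at the database's floor value (log10 P of -10) are not listed.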

PAMPA is the parallel artificial membrane permeability assay, which has no cells and reads passive diffusion.
P is given in units of 10^-6 cm/s (from log10 values with two decimals); larger means faster passage.

| PAMPA (10^-6 cm/s) | compound |
|---|---|
| 2.3 | CC(C)C[C@H]1NC(=O)[C@@H](C)N(C)C(=O)[C@H](Cc2ccccc2)NC(=O)CN(Cc2ccccc2)C(=O)[C@H]2CCCN2C(=O)[C@@H](CC(C)C)NC1=O |
| 0.066 | CC(C)C[C@H]1C(=O)N[C@@H](Cc2ccccc2)CC(=O)N2CCC[C@@H]2C(=O)N(Cc2ccccc2)CC(=O)N[C@@H](Cc2ccccc2)C(=O)N2CCC[C@@H]2C(=O)N(C)[C@H](C)C(=O)N1C |
| 5.4 | CC(C)C[C@H]1NC(=O)[C@@H]2CCCN2C(=O)CN(Cc2ccccc2)C(=O)[C@H](CC(C)C)N(C)C(=O)[C@H](C)N(C)C(=O)[C@H](Cc2ccccc2)NC1=O |
| 3.8 | CC(C)C[C@@H]1C(=O)N(Cc2ccccc2)CC(=O)N2CCC[C@H]2C(=O)N(Cc2ccccc2)CC(=O)N[C@@H](Cc2ccccc2)C(=O)N(C)[C@H](C)C(=O)N1C |
| 1.8 | CC(C)C[C@@H]1NC(=O)C[C@H](Cc2ccccc2)NC(=O)[C@H]2CCCN2C(=O)[C@H](Cc2ccccc2)NC(=O)[C@H](CC(C)C)NC(=O)[C@H]2CCCN2C(=O)[C@H](CC(C)C)NC1=O |
| 3.9 | CC(C)C[C@@H]1C(=O)N[C@@H](Cc2ccccc2)CC(=O)N2CCC[C@H]2C(=O)N(C)[C@@H](CC(C)C)C(=O)N[C@@H](Cc2ccccc2)C(=O)N[C@H](C)C(=O)N1C |
| 1.2 | CC(C)C[C@@H]1NC(=O)[C@H](C)N(C)C(=O)[C@@H]2CCCN2C(=O)[C@H](Cc2ccccc2)NC(=O)[C@@H](CC(C)C)N(C)C(=O)[C@@H]2CCCN2C(=O)[C@H](CC(C)C)NC1=O |
| 5.8 | CC(C)C[C@@H]1C(=O)N[C@@H](Cc2ccccc2)C(=O)N2CCC[C@@H]2C(=O)N[C@@H](Cc2ccccc2)CC(=O)N(C)[C@@H](CC(C)C)C(=O)N(C)[C@@H](CC(C)C)C(=O)N2CCC[C@@H]2C(=O)N1C |
| 1.2 | CC(C)C[C@@H]1NC(=O)CN(Cc2ccccc2)C(=O)C[C@H](Cc2ccccc2)NC(=O)[C@@H]2CCCN2C(=O)[C@H](Cc2ccccc2)NC(=O)[C@H](CC(C)C)N(C)C(=O)[C@@H]2CCCN2C1=O |
| 5.5 | CC(C)C[C@@H]1NC(=O)[C@H](CC(C)C)N(C)C(=O)C[C@H](Cc2ccccc2)NC(=O)[C@H]2CCCN2C(=O)[C@H](Cc2ccccc2)NC(=O)[C@@H](CC(C)C)NC(=O)[C@H]2CCCN2C1=O |
| 0.87 | CC(C)C[C@@H]1NC(=O)[C@H]2CCCN2C(=O)[C@H](CC(C)C)NC(=O)CN(Cc2ccccc2)C(=O)[C@@H](C)NC(=O)[C@H](Cc2ccccc2)NC1=O |
| 17 | CC(C)C[C@@H]1NC(=O)[C@H](CC(C)C)N(C)C(=O)[C@H](C)N(C)C(=O)[C@H](Cc2ccccc2)NC(=O)CN(Cc2ccccc2)C(=O)[C@@H]2CCCN2C1=O |
| 0.13 | CC(C)C[C@@H]1NC(=O)[C@H]2CCCN2C(=O)CN(Cc2ccccc2)C(=O)[C@@H](CC(C)C)NC(=O)[C@H](C)NC(=O)[C@@H]2CCCN2C(=O)[C@H](Cc2ccccc2)NC1=O |
| 1.2 | CC(C)C[C@H]1NC(=O)[C@@H]2CCCN2C(=O)C[C@H](Cc2ccccc2)NC(=O)CN(Cc2ccccc2)C(=O)C[C@H](Cc2ccccc2)NC(=O)[C@H]2CCCN2C(=O)[C@H](Cc2ccccc2)NC1=O |
| 3.1 | CC(C)C[C@@H]1NC(=O)[C@@H](CC(C)C)N(C)C(=O)[C@@H](C)N(C)C(=O)[C@H](Cc2ccccc2)NC(=O)[C@@H](CC(C)C)NC(=O)[C@H]2CCCN2C1=O |
| 2 | CC(C)C[C@@H]1NC(=O)[C@H]2CCCN2C(=O)[C@H](CC(C)C)N(C)C(=O)[C@@H](CC(C)C)NC(=O)C[C@H](Cc2ccccc2)NC(=O)[C@H]2CCCN2C(=O)[C@H](Cc2ccccc2)NC1=O |

Excerpt, the final 2 entries:

compound	PAMPA (10^-6 cm/s)
CC(C)C[C@@H]1NC(=O)[C@@H](CC(C)C)N(C)C(=O)[C@@H](C)N(C)C(=O)[C@H](Cc2ccccc2)NC(=O)[C@@H](CC(C)C)NC(=O)[C@H]2CCCN2C1=O	3.1
CC(C)C[C@@H]1NC(=O)[C@H]2CCCN2C(=O)[C@H](CC(C)C)N(C)C(=O)[C@@H](CC(C)C)NC(=O)C[C@H](Cc2ccccc2)NC(=O)[C@H]2CCCN2C(=O)[C@H](Cc2ccccc2)NC1=O	2

Data: CycPeptMPDB; original report Townsend et al. 2020, doi:10.26434/chemrxiv.13335941.v1.